Results published in patent US12171769B2, “Methods, compositions, and kits for treating and/or preventing a side effect associated with radiation and/or chemotherapy exposure” (BioMimetix JV, LLC, priority 2017, dated 2024).
Entries after “also recorded” stand apart in the source; their conditions may differ.

System: salivary glands
Assay: Salivary gland fibrosis quantification (Masson's trichrome, blue:red pixel ratio)
Type: in vivo, C57B1/6 mice
Conditions: 12 weeks post-RT (9 Gy); MnBuOE+RT at all levels of MnBuOE; vs control animals without RT

manganese butoxyethyl pyridyl porphyrin [BMX-001]
fibrosis in the salivary glands (blue:red pixel ratio): not significantly different; also recorded: attenuates fibrosis
